{"source": "patent US20200368267A1", "about": "“PROPHYLACTIC AND/OR THERAPEUTIC AGENT FOR AMYOTROPHIC LATERAL SCLEROSIS” (KYOTO UNIVERSITY, priority 2017, published 2020)", "system": "MNs with mutant SOD1 gene (L144FVX)", "assay": "Large scale screen using ALS MN (MN survival readout)", "assay_type": "cell-based, human", "method": "iPS cell cells containing LNI cassette were dissociated into single cells using Accutase, and seeded together with 1 μg/ml of doxycycline (TAKARA, Kusatsu, Japan) in N3 medium containing 1 μM retinoic acid, 1 μM SAG, 10 ng/ml BDNF, 10 ng/ml GDNF, and 10 ng/ml NT-3 on a 96 well plate (BD Bioscience) coated with Matrigel. The cells were fixed and stained on days 7 and 14. The number of viable MNs stained with βIII-tubulin was quantified by IN Cell Analyzer 6000 and expressed as the number of day 14/day 7. […] In this assay, therefore, βIII-tubulin positive neurons were defined as MN. Neurite and cell body were detected by optimized fluorescence levels, and the number of cell bodies having neurite was counted as the number of surviving neurons using IN Cell Developer toolbox software 1.9.\niPS cell cells containing LNI cassette were dissociated into single cells using Accutase, and seeded together with 1 ng/ml of doxycycline in N3 medium containing 1 μM RA, 1 μM SAG, 10 ng/ml BDNF, 10 ng/ml GDNF and 10 ng/ml NT-3 on a 96 well plate (BD Bioscience) coated with Matrigel. The libraries used for drug screening were Microsource US Drugs (Microsource Discovery Systems), Microsource International Drugs (Microsource Discovery Systems), and kinase inhibitor purchased from EMD and Selleck Chemicals. […] The number of viable MNs stained with βIII-tubulin was quantified by IN Cell Analyzer 6000.", "data": [{"molecule": "C[C@@H]1C[C@H]2[C@@H]3C[C@H](F)C4=CC(=O)C=C[C@]4(C)[C@@]3(F)[C@@H](O)C[C@]2(C)[C@@]1(O)C(=O)CO", "note": "[flumethasone]", "values": [{"measurement": "MN index", "value": 6.756}]}]}
